In patent US9227935B2, “Piperidine/piperazine derivatives” (Janssen Pharmaceutica N.V., priority 2007, dated 2016) one finds pIC50 data, which are given here for eight compounds.

Sequences of proteins named here, by UniProt entry; tags and fusion partners are left off.
UniProt O75907, whole entry: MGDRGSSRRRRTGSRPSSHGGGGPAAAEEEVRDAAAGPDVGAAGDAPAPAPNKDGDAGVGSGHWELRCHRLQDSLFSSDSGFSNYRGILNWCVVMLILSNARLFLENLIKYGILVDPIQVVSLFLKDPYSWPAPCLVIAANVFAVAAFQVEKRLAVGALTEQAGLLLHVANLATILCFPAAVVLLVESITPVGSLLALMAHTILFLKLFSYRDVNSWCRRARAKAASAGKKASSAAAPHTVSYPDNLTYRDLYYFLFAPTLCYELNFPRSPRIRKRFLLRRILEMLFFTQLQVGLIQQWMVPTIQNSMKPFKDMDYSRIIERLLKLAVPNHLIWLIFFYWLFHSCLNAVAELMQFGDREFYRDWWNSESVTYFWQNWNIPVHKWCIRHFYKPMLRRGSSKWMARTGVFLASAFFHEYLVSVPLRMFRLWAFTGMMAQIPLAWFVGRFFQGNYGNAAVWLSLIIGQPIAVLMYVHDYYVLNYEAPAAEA

The target in the test is human DGAT1 (Homo sapiens, UniProt O75907). The test is described as follows: DGAT1 FlashPlate inhibition assay with DGAT1 membrane preparations. The settings on record: IC50 values expressed in M; pIC50 = -logIC50; inhibition of DGAT1 activity. From the text: The inhibiting activity of the present compounds on DGAT1 activity was screened in a single well procedure assay using DGAT1 comprising membrane preparations and DGAT1 substrate comprising micelles and determining formed radio-active triacylglycerol coming in close proximity of a flashplate surface by radioluminescence.
Said assay is described in full detail in WO2006/067071, the content of which is incorporated herein by reference.
By DGAT1 activity is meant the transfer of coenzyme A activated fatty acids to the 3-position of 1,2-diacylglycerols, thus forming a triglyceride molecule, by enzyme DGAT1.
human DGAT1 (NM012079.2) was cloned into the pFastBac vector, containing translation start, a FLAG-tag at the N-terminus as described in literature and a viral Kozak sequence (AAX) preceding the ATG to improve expression in insect cells. Expression was done as described in literature (Cases, S., Smith, S. J., Zheng, Y., Myers H. M., Lear, S. R., Sande, E., Novak, S., Collins, C., Welch, C. B., Lusis, A. J., Erickson, S. K. and Farese, R. V. (1998) Proc. Natl. Acad. Sci. USA 95, 13018-13023.) using SF9 cells.
72 h transfected SF9 cells were collected by centrifugation (13000 rpm-15 min-4° C.) and lysed in 2×500 ml lysis buffer (0.1M Sucrose, 50 mM KCl, 40 mM KH2PO4, 30 mM EDTA pH 7.2. Cells were homogenized by cell disruptor. After centrifugation 1380 rpm-15 min-4° C. (SN discarded), pellet was resuspended in 500 ml lysis buffer and total cell membranes collected by ultracentrifugation at 34000 rpm (100 000 g) for 60 min (4° C.). The collected membranes were resuspended in lysis buffer, divided in aliquots and stored with 10% glycerol at −80° C. until use.
Add 1 ml dioleoyl-sn-glycerol (10 mg/ml) to 10 ml of L-α-phosphatidylcholine (1 mg/ml) and 10 ml of L-α-phosphatidyl-L-serine (1 mg/ml) in a thick glass recipient. Evaporate under nitrogen and put on ice for 15 minutes. Reconstitute in 10 ml Tris/HCl (10 mM, pH 7.4) by sonication on ice. The sonification process consists of sonification cycles of 10 seconds in the sonification bath followed by 10 seconds cool down on ice and repeating this sonification cycle till a homogeneous solution is obtained (takes about 15 minutes). The thus obtained micelles are stored at −20° C. till later use and contain DAG at a final concentration of 1.61 mM.
• 50 mM Tris-HCl (pH 7.4), 150 mM MgCl2, 1 mM EDTA, 0.2% BSA. b) N-ethylmaleimide, 5M • Dissolve 5 g into a final volume of 8 ml DMSO 100% and store at −20° C. in aliquots till later use. c) Substrate mix (for 1 384 well plate=3840 μl) • 612 μl micelles stock (51 μM final) • 16.6 μl oleoylCoA 9.7 mM • 23 μl [^3H]-oleoylCoA (49 Ci/mmol, 500 μCi/ml) • 3188.4 μl Tris pH 7.4, 10 mM d) Enzyme mix (for 1 384 well plate=3520 μl) (5 μg/ml) • Add 11.73 μl of DGAT membrane stock (1500 μg/ml stock) to 3508 μl assay buffer. e) Stop mix (for 1 384 well plate=7.68 ml) (250 mM) • Add 384 μl of N-ethylmaleimide (5M) to 3.456 ml DMSO 100%, and further dilute 3.84 ml of said solution with 3.84 ml DMSO 10%. Method
DGAT activity in membrane preparations was assayed in 50 mM Tris-HCl (pH 7.4), 150 mM MgCl2, 1 mM EDTA and 0.2% BSA, containing 50 μM DAG, […] PC/PS and 8.4 μM [^3H]-oleoylCoA (at a specific activity of 30 nCi/well) in a final volume of 50 μl in 384-well format using the red shifted Basic Image FlashPlate™ (Perkin Elmer Cat. No. SMP400).
In detail, 10 μl enzyme mix and 10 μl substrate mix were added to 30 μl of assay buffer, optionally in the presence of 1 μl DMSO (blank and controls) or 1 μl of the compound to be tested. This reaction mixture was incubated for 120 minutes at 37° C. and the enzymatic reaction stopped by adding 20 μl of the stop mix. The plates were sealed and the vesicles allowed to settle overnight at room temperature. Plates were centrifuged for 5 minutes at 1500 rpm and measured in Leadseeker. […]
Take `Cc1ccccc1CC(=O)N1CCN(c2ccc(NC(=O)c3cccc(Br)c3)cc2)CC1`: the pIC50 (in general, the IC50 on a negative log10 scale, so that one unit is a factor of ten) worked out at 6.75. For the compound `Cc1cc(Cl)c(CC(=O)N2CCN(c3ccc(C(=O)Nc4cccc(N5CCCC5)c4)cc3)CC2)c(Cl)n1`, the negative logarithm of the IC50 (pIC50) is 7.34. The value for `CCCCc1ccc(C(=O)Nc2ccc(N3CCN(C(=O)Cc4ccccc4C)CC3)cc2)cc1` was 6.96; that for `O=C(Nc1c(Cl)cccc1Cl)c1ccc(N2CCN(C(=O)Cc3c(Cl)cccc3Cl)CC2)cc1` was 5.89. The compound `O=C(Nc1ccc(N2CCN(C(=O)NC3CCCCC3)CC2)cc1)c1ccccc1-c1ccc(C(F)(F)F)cc1` registered a pIC50 of 5.13. In the case of `COc1ccc(NC(=O)c2ccc(N3CCN(C(=O)Nc4c(Cl)cc(CN5CCCC5)cc4Cl)CC3)cc2F)cc1` it was 6.67.

On to `Cc1nc(C(=O)Nc2ccc(C3CCN(C(=O)Nc4c(Cl)cccc4Cl)CC3)cc2)c(-c2ccc3c(c2)OCO3)s1`, for which the pIC50 is given as 6.15.

Take `COc1ccc(CNC(=O)N2CCN(c3ccc(C(=O)Nc4c(Cl)cccc4Cl)cc3)CC2)cc1`: the pIC50 is 5.03.
